Results published in patent US8071548B2, “Method of reducing injury to mammalian cells” (Nono, Inc., priority 2002, dated 2011).

Amino acid sequences for entries named in this document (tags omitted).
UniProt P31016, whole entry: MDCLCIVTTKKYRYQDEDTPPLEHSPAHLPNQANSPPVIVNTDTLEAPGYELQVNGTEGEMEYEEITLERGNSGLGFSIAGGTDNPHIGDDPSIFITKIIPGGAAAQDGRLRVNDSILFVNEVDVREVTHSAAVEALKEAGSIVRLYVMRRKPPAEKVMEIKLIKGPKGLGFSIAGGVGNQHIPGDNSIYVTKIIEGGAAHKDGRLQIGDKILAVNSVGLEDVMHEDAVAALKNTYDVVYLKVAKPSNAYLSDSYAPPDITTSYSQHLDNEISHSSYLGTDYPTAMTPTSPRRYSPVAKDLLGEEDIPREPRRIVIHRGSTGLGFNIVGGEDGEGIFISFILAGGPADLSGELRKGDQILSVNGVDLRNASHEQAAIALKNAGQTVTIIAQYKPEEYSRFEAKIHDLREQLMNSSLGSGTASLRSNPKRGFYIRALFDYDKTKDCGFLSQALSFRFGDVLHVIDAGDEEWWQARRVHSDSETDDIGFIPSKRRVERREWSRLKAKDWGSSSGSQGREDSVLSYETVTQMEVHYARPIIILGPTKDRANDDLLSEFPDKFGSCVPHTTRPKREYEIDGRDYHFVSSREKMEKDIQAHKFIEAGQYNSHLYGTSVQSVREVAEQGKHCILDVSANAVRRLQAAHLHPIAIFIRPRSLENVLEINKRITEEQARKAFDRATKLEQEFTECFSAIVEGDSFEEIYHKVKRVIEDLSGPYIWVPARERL

Target: NMDAR/PSD-95 interaction (Rattus norvegicus, UniProt P31016)
Assay type: binding

Tat-KLSSIESDV [Tat-NR2B9c]
reduction of co-immunoprecipitation of PSD-95 with NR2B (optical density signal): 37.6±8.2%
